Measured values published in US20260384438A1, “PYRROLOPYRIMIDINE CARBOXAMIDES” (published 2026).

The chains behind the UniProt entries cited, without tags or fusion partners. Residues count along the entry.
UniProt P52564, whole entry: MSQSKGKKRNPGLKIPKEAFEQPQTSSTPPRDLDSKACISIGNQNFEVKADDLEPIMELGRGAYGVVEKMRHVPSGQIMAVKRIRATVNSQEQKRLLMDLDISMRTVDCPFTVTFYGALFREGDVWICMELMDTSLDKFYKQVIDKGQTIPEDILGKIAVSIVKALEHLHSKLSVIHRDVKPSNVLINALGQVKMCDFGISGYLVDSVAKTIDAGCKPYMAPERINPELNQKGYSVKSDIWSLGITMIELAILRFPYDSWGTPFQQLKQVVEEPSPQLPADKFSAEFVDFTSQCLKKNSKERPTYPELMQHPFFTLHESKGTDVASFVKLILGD
UniProt Q16539, whole entry: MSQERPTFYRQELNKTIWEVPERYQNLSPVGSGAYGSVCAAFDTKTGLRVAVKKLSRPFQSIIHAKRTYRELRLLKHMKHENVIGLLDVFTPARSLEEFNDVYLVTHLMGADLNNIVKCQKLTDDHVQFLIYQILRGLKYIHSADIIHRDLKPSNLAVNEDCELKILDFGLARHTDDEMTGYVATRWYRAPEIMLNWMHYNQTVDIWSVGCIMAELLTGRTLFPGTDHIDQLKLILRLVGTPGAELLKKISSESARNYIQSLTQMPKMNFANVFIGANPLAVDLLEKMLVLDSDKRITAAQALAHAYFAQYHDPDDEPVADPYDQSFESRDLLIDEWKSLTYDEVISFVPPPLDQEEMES
UniProt Q02750, whole entry: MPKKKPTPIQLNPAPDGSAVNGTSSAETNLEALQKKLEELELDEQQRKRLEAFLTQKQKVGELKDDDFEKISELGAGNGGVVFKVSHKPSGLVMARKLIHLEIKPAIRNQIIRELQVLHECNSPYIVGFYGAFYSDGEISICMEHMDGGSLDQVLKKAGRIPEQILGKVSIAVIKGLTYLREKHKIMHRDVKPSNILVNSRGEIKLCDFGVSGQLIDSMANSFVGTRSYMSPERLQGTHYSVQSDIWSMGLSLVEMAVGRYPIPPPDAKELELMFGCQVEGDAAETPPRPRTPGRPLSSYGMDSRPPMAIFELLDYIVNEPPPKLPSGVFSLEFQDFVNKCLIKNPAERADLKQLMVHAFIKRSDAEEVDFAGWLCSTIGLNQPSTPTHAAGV
UniProt P53779, whole entry: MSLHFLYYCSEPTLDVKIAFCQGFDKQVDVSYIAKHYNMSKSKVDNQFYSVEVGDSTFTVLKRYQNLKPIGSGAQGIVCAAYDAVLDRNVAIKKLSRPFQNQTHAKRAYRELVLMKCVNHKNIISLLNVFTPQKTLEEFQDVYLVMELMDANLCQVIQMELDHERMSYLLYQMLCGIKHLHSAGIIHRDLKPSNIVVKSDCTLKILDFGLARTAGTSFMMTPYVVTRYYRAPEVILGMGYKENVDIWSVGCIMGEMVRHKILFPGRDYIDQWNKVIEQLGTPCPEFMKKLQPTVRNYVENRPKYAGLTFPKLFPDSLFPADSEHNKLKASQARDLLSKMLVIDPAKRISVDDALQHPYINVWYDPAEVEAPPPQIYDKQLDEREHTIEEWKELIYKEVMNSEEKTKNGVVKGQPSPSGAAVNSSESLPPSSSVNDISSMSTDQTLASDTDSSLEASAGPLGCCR
UniProt P45983, whole entry: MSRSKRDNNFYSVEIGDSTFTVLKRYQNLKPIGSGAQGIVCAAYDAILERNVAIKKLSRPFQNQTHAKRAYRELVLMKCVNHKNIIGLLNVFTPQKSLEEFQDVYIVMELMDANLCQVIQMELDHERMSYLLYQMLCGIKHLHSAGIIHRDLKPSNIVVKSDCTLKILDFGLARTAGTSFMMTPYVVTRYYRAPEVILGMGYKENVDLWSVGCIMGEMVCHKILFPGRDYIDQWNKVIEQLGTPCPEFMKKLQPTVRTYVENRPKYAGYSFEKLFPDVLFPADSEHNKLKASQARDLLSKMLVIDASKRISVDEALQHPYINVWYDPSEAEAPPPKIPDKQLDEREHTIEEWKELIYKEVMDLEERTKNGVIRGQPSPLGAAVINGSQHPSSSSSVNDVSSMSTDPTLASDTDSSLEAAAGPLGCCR
UniProt Q00534, whole entry: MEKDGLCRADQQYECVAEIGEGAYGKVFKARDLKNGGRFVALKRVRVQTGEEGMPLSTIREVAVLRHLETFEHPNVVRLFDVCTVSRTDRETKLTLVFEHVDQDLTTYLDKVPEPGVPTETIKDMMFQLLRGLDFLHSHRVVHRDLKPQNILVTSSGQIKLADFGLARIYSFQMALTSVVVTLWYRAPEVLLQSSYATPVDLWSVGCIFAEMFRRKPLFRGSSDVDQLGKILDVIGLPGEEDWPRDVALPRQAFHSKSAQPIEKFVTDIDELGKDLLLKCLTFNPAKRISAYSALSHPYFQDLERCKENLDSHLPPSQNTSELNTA
UniProt P53355, whole entry: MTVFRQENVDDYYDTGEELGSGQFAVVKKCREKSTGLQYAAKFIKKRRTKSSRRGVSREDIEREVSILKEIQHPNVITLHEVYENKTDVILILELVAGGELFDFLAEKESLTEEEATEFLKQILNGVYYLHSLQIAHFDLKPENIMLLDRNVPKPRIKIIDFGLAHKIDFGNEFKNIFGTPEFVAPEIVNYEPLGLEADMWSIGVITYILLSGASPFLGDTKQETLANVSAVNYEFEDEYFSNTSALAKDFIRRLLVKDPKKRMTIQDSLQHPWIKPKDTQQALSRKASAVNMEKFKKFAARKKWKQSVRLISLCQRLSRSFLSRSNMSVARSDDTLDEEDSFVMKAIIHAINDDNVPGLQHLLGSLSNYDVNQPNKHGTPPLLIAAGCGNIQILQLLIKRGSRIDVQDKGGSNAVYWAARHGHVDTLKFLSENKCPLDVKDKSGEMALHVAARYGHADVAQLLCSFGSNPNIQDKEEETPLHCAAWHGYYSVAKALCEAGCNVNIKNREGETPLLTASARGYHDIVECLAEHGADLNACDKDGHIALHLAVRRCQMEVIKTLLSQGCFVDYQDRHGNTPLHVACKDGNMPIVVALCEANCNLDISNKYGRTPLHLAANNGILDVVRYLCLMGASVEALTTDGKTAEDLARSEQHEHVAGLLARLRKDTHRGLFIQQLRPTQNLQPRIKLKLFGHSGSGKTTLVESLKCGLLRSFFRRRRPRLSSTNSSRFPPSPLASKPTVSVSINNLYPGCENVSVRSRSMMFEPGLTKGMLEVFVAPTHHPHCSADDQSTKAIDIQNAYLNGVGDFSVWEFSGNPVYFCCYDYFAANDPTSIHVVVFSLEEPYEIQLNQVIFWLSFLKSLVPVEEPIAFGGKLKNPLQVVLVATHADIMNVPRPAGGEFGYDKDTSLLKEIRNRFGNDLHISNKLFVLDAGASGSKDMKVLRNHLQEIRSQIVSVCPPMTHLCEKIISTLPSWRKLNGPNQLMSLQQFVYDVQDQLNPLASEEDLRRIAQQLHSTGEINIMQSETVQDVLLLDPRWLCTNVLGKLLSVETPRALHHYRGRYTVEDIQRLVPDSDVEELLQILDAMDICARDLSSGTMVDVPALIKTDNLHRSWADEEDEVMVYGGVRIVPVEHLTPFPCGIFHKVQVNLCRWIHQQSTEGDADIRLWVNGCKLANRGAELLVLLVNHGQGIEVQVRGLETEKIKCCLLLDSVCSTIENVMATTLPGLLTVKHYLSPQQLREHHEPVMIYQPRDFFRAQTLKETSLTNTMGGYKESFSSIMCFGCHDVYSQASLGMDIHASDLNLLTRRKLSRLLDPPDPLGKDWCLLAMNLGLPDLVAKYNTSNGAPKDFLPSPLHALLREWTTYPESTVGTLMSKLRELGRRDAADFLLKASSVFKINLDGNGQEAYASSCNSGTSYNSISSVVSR
UniProt O60331, whole entry: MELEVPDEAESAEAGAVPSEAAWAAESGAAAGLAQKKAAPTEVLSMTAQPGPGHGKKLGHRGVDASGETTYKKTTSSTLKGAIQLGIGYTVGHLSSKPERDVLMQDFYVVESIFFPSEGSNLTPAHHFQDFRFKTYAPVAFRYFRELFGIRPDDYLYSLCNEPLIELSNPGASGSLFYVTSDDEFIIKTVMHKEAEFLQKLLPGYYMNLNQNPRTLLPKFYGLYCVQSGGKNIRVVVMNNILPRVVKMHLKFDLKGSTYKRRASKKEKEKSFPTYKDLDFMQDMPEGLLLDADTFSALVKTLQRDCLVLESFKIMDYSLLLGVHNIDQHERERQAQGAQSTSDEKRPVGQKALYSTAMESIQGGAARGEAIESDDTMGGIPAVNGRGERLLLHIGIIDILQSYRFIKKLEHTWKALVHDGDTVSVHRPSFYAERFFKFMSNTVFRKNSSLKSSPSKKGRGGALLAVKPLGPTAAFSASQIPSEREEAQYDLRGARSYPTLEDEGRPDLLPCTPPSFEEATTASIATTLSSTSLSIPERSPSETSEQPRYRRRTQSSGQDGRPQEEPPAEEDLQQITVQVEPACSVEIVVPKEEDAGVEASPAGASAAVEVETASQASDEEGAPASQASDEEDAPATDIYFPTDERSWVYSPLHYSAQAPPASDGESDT
UniProt Q96S53, whole entry: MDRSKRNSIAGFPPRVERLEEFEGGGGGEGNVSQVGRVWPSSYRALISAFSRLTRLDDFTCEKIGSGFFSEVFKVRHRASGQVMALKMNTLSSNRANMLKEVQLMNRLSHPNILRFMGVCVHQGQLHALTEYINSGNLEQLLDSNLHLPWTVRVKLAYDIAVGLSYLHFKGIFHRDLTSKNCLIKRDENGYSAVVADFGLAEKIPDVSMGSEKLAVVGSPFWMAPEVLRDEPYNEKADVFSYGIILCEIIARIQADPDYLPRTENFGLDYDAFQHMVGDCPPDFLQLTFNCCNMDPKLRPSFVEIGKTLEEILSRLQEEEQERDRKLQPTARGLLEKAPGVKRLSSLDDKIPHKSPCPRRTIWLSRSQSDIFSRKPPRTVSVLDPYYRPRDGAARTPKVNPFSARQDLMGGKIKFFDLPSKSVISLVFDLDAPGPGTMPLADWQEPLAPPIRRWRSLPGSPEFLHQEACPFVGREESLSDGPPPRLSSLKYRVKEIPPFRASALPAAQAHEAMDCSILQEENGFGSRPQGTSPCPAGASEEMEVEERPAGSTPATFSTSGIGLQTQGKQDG
UniProt P10635, whole entry: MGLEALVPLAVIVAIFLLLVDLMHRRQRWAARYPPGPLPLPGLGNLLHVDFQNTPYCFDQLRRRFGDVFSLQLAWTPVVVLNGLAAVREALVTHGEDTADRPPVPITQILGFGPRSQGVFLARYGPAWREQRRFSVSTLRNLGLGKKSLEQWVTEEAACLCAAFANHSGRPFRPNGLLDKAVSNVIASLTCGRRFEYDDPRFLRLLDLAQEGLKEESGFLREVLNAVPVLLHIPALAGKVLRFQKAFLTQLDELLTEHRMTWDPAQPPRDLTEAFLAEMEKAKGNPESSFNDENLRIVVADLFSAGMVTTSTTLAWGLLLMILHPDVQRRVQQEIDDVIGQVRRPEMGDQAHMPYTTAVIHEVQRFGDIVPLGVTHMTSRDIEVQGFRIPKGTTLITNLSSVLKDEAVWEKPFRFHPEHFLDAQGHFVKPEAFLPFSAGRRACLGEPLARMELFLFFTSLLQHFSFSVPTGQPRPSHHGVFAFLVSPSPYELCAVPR
UniProt P54753, 34-998 limits assumed: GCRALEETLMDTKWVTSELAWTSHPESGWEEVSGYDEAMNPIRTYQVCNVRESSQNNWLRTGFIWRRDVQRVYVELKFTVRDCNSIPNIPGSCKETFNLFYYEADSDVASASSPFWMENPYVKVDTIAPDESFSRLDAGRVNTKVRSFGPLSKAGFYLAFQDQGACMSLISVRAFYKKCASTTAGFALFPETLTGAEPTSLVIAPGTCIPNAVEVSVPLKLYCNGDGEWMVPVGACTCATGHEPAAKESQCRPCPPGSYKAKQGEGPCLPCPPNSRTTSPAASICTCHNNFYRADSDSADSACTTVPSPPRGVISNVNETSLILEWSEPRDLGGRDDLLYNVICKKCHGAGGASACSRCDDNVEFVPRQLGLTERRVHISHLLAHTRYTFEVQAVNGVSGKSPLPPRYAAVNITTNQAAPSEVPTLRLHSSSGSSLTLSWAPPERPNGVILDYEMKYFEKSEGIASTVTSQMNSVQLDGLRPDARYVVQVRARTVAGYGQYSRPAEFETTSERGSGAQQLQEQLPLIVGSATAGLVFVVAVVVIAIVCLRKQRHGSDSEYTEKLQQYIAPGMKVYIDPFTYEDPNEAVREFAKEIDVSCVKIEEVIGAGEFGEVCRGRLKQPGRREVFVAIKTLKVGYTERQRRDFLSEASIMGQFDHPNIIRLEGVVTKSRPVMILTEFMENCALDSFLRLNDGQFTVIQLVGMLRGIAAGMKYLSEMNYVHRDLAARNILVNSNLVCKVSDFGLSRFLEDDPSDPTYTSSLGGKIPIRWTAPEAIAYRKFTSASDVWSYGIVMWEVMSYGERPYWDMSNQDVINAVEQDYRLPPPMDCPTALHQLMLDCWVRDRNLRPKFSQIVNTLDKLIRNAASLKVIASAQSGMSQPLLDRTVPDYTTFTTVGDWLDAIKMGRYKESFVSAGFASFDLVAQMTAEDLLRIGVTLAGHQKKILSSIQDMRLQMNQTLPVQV

Experiments:
Caco-2 cell permeability = conditions: 10 μM
CYP3A = test: CYP inhibition, CYP3A; conditions: read-out: CYP3A inhibition IC50; HLM, midazolam 3 μM
OVCAR3 tumors = test: Human ovarian OVCAR3 cell line-derived xenograft model in female SCID mice; conditions: for tumor regression: Day 21, P<0.001
MAP2K6 (MKK6) = MAP2K6 (MKK6) (Homo sapiens, UniProt P52564); test: Kinase profiling, Cascade Z-Lyte; conditions: 1 μM, KmATP
MAPK14 (p38a) = MAPK14 (p38a) (Homo sapiens, UniProt Q16539); test: Kinase profiling, Cascade Z-Lyte; conditions: 1 μM, KmATP
MAP2K1 (MEK1) = MAP2K1 (MEK1) (Homo sapiens, UniProt Q02750); test: Kinase profiling, Cascade Z-Lyte; conditions: 1 μM, KmATP
MAPK10 (JNK3) = MAPK10 (JNK3) (Homo sapiens, UniProt P53779); test: Kinase profiling, Cascade Z-Lyte; conditions: 1 μM, KmATP
PDPK1 = PDPK1 (Homo sapiens, UniProt O15530); test: Kinase profiling, Cascade Z-Lyte; conditions: 1 μM, KmATP
bRAF = bRAF (Homo sapiens, UniProt P15056); test: Kinase profiling, Cascade Z-Lyte
MAP2K2 (MEK2) = MAP2K2 (MEK2) (Homo sapiens, UniProt P36507); test: Kinase profiling, Cascade Z-Lyte; conditions: 1 μM, KmATP
MAP3K8 (COT) = MAP3K8 (COT) (Homo sapiens, UniProt P41279); test: Kinase profiling, Cascade Z-Lyte; conditions: 1 μM, KmATP
MAPK8 (JNK1) = MAPK8 (JNK1) (Homo sapiens, UniProt P45983); test: Kinase profiling, Cascade Z-Lyte; conditions: 1 μM, KmATP
MAPK9 (JNK2) = MAPK9 (JNK2) (Homo sapiens, UniProt P45984); test: Kinase profiling, Cascade Z-Lyte; conditions: 1 μM, KmATP
[1] = Metabolic stability in human liver microsomes (HLM); conditions: human liver microsomes 1 mg/mL, 1 μM
NUAK1 (ARK5) = NUAK1 (ARK5) (Homo sapiens, UniProt O60285); test: Kinase profiling, Adapta; conditions: 1 μM, KmATP
PI4KA = PI4KA (Homo sapiens, UniProt P42356); test: Kinase profiling, Adapta; conditions: 1 μM, KmATP
CAMK1 (CaMK1) = CAMK1 (CaMK1) (Homo sapiens, UniProt Q14012); test: Kinase profiling, Adapta; conditions: 1 μM, KmATP
PIK3CD/PIK3R1 = PIK3CD/PIK3R1 (Homo sapiens, UniProt O00329); test: Kinase profiling, Adapta; conditions: 1 μM, KmATP
PIK3CA/PIK3R3 = PIK3CA/PIK3R3 (Homo sapiens, UniProt P42336); test: Kinase profiling, Adapta; conditions: 1 μM, KmATP
CDK9/cyclin T1 = CDK9/cyclin T1 (Homo sapiens, UniProt P50750); test: Kinase profiling, Adapta; conditions: 1 μM, KmATP
PIK3CA/PIK3R1 = PIK3CA/PIK3R1 (Homo sapiens, UniProt P42336); test: Kinase profiling, Adapta; conditions: 1 μM, KmATP
LRRK2 FL = LRRK2 FL (Homo sapiens, UniProt Q5S007); test: Kinase profiling, Adapta; conditions: 1 μM, KmATP
PI4KB = PI4KB (Homo sapiens, UniProt Q9UBF8); test: Kinase profiling, Adapta; conditions: 1 μM, KmATP
IRAK1 = IRAK1 (Homo sapiens, UniProt P51617); test: Kinase profiling, Adapta; conditions: 1 μM, KmATP
PIK3C2G = PIK3C2G (Homo sapiens, UniProt O75747); test: Kinase profiling, Adapta; conditions: 1 μM, KmATP
CDK6 Cyclin D1 = CDK6 Cyclin D1 (Homo sapiens, UniProt Q00534); test: Kinase profiling, Adapta; conditions: 1 μM, KmATP
DAPK1 = DAPK1 (Homo sapiens, UniProt P53355); test: Kinase profiling, Adapta; conditions: 1 μM, KmATP
CHUK(IKK alpha) = CHUK(IKK alpha) (Homo sapiens, UniProt O15111); test: Kinase profiling, Adapta; conditions: 1 μM, KmATP
PIK3CB/PIK3R2 = PIK3CB/PIK3R2 (Homo sapiens, UniProt P42338); test: Kinase profiling, Adapta; conditions: 1 μM, KmATP
PIP5K1C = PIP5K1C (Homo sapiens, UniProt O60331); test: Kinase profiling, Adapta; conditions: 1 μM, KmATP
PKMYT1 = PKMYT1 (Homo sapiens, UniProt Q99640); test: NanoBRET target engagement in HEK293T cells, PKMYT1; conditions: read-out: PKMYT1 INHIBITION IC50, 2 h
[2] = In vitro biotransformation in mouse hepatocytes; conditions: 5 μM, 180 min
TESK2 = TESK2 (Homo sapiens, UniProt Q96S53); test: Kinase profiling, Lantha v2; conditions: 1 μM, KmATP
ANKK1 = ANKK1 (Homo sapiens, UniProt Q8NFD2); test: Kinase profiling, Lantha v2; conditions: 1 μM, KmATP
CYP2D6 = CYP2D6 (Homo sapiens, UniProt P10635); test: CYP time dependent inhibition, CYP2D6; conditions: 10 μM, 30 min preincubation, HLM
EPHB3 = EPHB3 (Homo sapiens, UniProt P54753); test: NanoBRET target engagement in HEK293T cells, EPHB3; conditions: read-out: EPHB3 INHIBITION IC50, 2 h

Cc1nc(C(F)(F)F)c2c(C(N)=O)c(N)n(-c3c(C)ccc(O)c3C)c2n1 (single isomer, unassigned)
Caco-2 A-B Papp (Caco-2 cell permeability; 2 h, 37 °C): 30.060 1E−6.cm/s | Caco-2 EFFLUX RATIO (Caco-2 cell permeability; Papp(B to A)/Papp(A to B)): 1.84 | IC50 (CYP3A): > 30000 nM | tumor regression (OVCAR3 tumors; 10 mg/kg BID + 20 mg/kg gemcitabine i.p. once weekly): 31% | regrowth to 200 mm^3 tumor volumes following cessation of treatment (OVCAR3 tumors; 10 mg/kg BID + gemcitabine): 11 days | Regression (TGI vs vehicle, Day 21) (OVCAR3 tumors; 10 mg/kg BID Compound 137, Isomer 2 orally + 20 mg/kg Gemcitabine intraperitoneal once weekly): 31% Regression | TGI vs vehicle (Day 21) (OVCAR3 tumors; 10 mg/kg BID orally): 25% | tumor growth inhibition (TGI) (OVCAR3 tumors; 10 mg/kg BID, Day 21, P>0.05 non-significant): 25% | TGI vs vehicle (Day 21) (OVCAR3 tumors; 30 mg/kg BID orally): 12% | tumor growth inhibition (TGI) (OVCAR3 tumors; 30 mg/kg BID, Day 21, P>0.05 non-significant): 12% | tumor regression (OVCAR3 tumors; 50 mg/kg BID + 20 mg/kg gemcitabine i.p. once weekly): 62% | regrowth to 200 mm^3 tumor volumes following cessation of treatment (OVCAR3 tumors; 50 mg/kg BID + gemcitabine): 35 days | Regression (TGI vs vehicle, Day 21) (OVCAR3 tumors; 50 mg/kg BID Compound 137, Isomer 2 orally + 20 mg/kg Gemcitabine intraperitoneal once weekly): 62% Regression | TGI vs vehicle (Day 21) (OVCAR3 tumors; 100 mg/kg BID orally): 77% | tumor growth inhibition (TGI) (OVCAR3 tumors; 100 mg/kg BID, Day 21, P<0.01): 77% | efficacy of combinations versus monotherapies (OVCAR3 tumors; 10 or 50 mg/kg BID + gemcitabine): outperformed Compound 137, Isomer 2 monotherapy and gemcitabine monotherapy | MEAN INHIBITION (MAP2K6 (MKK6)): −0.119% | MEAN INHIBITION (MAPK14 (p38a)): −0.075% | MEAN INHIBITION (MAP2K1 (MEK1)): 7.323% | MEAN INHIBITION (MAPK10 (JNK3)): 5.848% | MEAN INHIBITION (PDPK1): 10.720% | MEAN INHIBITION (bRAF; 1 μM, KmATP): 40.753% | IC50 (bRAF; 10-point CR, ATP 100.000 μM): 963 nM | MEAN INHIBITION (MAP2K2 (MEK2)): 0.056% | MEAN INHIBITION (MAP3K8 (COT)): 7.138% | MEAN INHIBITION (MAPK8 (JNK1)): 10.253% | MEAN INHIBITION (MAPK9 (JNK2)): −0.061% | HLM (CLint) [1]: <5.834 µL/min/mg | MEAN INHIBITION (NUAK1 (ARK5)): 1.560% | MEAN INHIBITION (PI4KA): 2.590% | MEAN INHIBITION (CAMK1 (CaMK1)): 11.522% | MEAN INHIBITION (PIK3CD/PIK3R1): −1.504% | MEAN INHIBITION (PIK3CA/PIK3R3): −2.464% | MEAN INHIBITION (CDK9/cyclin T1): 16.235% | MEAN INHIBITION (PIK3CA/PIK3R1): 0.944% | MEAN INHIBITION (LRRK2 FL): −6.193% | MEAN INHIBITION (PI4KB): 5.927% | MEAN INHIBITION (IRAK1): −2.983% | MEAN INHIBITION (PIK3C2G): −1.050% | MEAN INHIBITION (CDK6 Cyclin D1): 9.064% | MEAN INHIBITION (DAPK1): −1.914% | MEAN INHIBITION (CHUK(IKK alpha)): 11.354% | MEAN INHIBITION (PIK3CB/PIK3R2): −1.195% | MEAN INHIBITION (PIP5K1C): −4.695% | IC50 (PKMYT1): 9 nM | Glucuronidation [2]: M (Major (>10%)) | MEAN INHIBITION (TESK2): 5.530% | MEAN INHIBITION (ANKK1): −2.285% | % time dependent inhibition (TDI), CYP2D6 (CYP2D6): less than 20% | IC50 (EPHB3): 3960 nM
